# Measured values taken from PubChem BioAssay AID504634 (The Scripps Research Institute Molecular Screening Center, 2011).
# Sequences of proteins named here, by UniProt entry; tags and fusion partners are left off.
# UniProt P47898, whole entry, looked up: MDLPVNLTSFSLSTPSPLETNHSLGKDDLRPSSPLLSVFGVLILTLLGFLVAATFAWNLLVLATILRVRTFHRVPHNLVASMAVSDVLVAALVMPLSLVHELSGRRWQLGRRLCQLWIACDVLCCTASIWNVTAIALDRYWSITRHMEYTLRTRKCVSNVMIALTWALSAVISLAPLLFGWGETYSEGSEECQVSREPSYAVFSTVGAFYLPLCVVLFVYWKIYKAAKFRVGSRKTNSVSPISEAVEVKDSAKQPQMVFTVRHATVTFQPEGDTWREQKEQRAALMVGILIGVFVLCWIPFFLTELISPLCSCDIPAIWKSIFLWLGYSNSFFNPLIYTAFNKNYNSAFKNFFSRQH
# The list shows a part of the results, in another mix than the full data. Calls of active or inactive are those of the source. No stated cut-off is given here; in the data, active means inhibition mostly above about 23% (no sharp cut-off); inactive means mostly below about 18%.
# Biological target: 5-hydroxytryptamine receptor 5A (Homo sapiens) (UniProt P47898)
# Assay: inverse agonism at human 5-HT5A receptor – cell-based, luminescence, full-deck HTS, counter-screen for OPRM1-OPRD1 heterodimer inverse agonist project, primary screen (AID 504634);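 further: 0% = cells with DMSO and 100% = no-cell wells with DMSO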
# Conditions: HTR5A cell line, at 9.3 µM, stronger effect = higher value
row,SMILES,inhibition
1,COC(=O)C1(C)COP(=O)(N2CCCCCC2)OC1 (centres undefined),inactive: 5.88%
2,Oc1ccccc1CNc1nc2ccccc2n1CCN1CCCCC1,inactive: -9.78%
3,Cc1nc2ccccc2n1C1CCN(Cc2nnnn2CCc2ccccc2)CC1,inactive: -3.73%
4,O=C(Nc1nc2ccccc2n1CCN1CCCC1)c1ccc(Cl)cc1,inactive: -5.97%
5,CC1c2nc3ccccc3n2C(CC(=O)NCc2ccccn2)C(=O)N1Cc1ccccc1 (centres undefined),inactive: -8.58%
6,CC(=O)Nc1ccc(C(=O)CSc2nc3ccccc3n2CC(=O)N2CCCC2)cc1,inactive: 11%
7,Cc1ccc2c(c1)C1CN(C)CCC1N2C(=O)c1cccs1 (centres undefined),inactive: -1.9%
8,Cc1ccc2c(c1)C1CN(C)CCC1N2C(=O)COc1ccc(N(C)C(=O)C(C)(C)C)cc1 (centres undefined),inactive: 5.43%
9,Nc1ncnc2c1ncn2CCN1CCOCC1,inactive: 7.76%
10,CC(C)[C@H](NC(=O)N1CCn2c1nc1ccccc12)C(=O)NC1CCCCC1,inactive: -25.4%
11,CCN(CC)CCNC(=S)N1CCn2c(nc3ccccc32)C1,inactive: 14.4%
12,COc1ccc(/C=N/c2nc3ccccc3n2CCN2CCCCC2)cc1OC,inactive: 14.2%
13,CC(=O)Nc1ccc(NC(=O)Cn2c(CC(=O)N3CCCC3)nc3ccccc32)cc1,inactive: -19.4%
14,Cc1cc(SC(NC(=O)c2ccccc2)C(Cl)(Cl)Cl)nc(C(C)C)n1 (centres undefined),inactive: -23.2%
15,CSc1nc(N)nc2c1ncn2CC(=O)NCc1ccccc1,inactive: -19.9%
16,CCCN(C(=O)Cn1c(C(F)(F)F)nc2ccccc21)C1CCS(=O)(=O)C1 (centres undefined),inactive: 13.5%
17,CC(C)[C@H](NC(=O)N1CCn2c1nc1ccccc12)C(=O)N1CCCCC1,inactive: -31.1%
18,Cc1ccc(-c2csc(N3CCC[C@@H]3C(=O)NCCn3c(C(F)(F)F)nc4ccccc43)n2)cc1,inactive: -6.37%
19,CCCNC(=O)CC1C(=O)N(Cc2ccccc2)C(C)c2nc3ccccc3n21 (centres undefined),inactive: -11.3%
20,COc1ccc(S(=O)(=O)N2CCn3c2nc2ccccc23)cc1,inactive: -9.45%
21,Cc1ccc2c(c1)C1CN(C)CCC1N2C(=O)COc1ccccc1F (centres undefined),inactive: 7.86%
22,CCOC(=O)Nc1ccc([As](=O)(O)O)c(O)c1,inactive: 0.81%
23,Cc1ccc(S(=O)(=O)c2nc(-c3ccccc3Cl)oc2N(C)C2CCN(C)CC2)cc1,inactive: -6.97%

row,SMILES,inhibition
1,Nc1ncnc2c1ncn2CCNCCc1ccccc1,inactive: -20.1%
2,O=C(Cn1c(C(F)(F)F)nc2ccccc21)NCCCN1CCOCC1,inactive: -13.2%
3,CCCCC(=O)Nc1nnc(/C=C/c2ccc(OC)cc2)s1,inactive: -7.05%
4,CC(C)C[C@H](NC(=O)N1CCn2c1nc1ccccc12)C(=O)NCCc1ccccc1,inactive: 17%
5,Cc1cc(C)cc(N(CC(=O)N2CCn3c2nc2ccccc23)S(=O)(=O)c2c(C)noc2C)c1,inactive: -29.7%
6,C[C@H](O)[C@@H]1C(=O)N2CCc3ccc(N4CCN(C)CC4)cc3[C@@H]2C[C@@H]1N(C)C(=O)NC1CCCCC1,inactive: -7.01%
7,COCC(=O)N(C)[C@H]1C[C@H]2c3cc(-c4ccccc4)ccc3CCN2C(=O)[C@H]1[C@H](C)O,inactive: 3.56%
8,CC1CCNP(=O)(N(CCCl)CCCl)O1 (centres undefined),inactive: 3.15%
9,Cc1ccc(N(CC(=O)N2CCn3c2nc2ccccc23)S(=O)(=O)c2c(C)n[nH]c2C)cc1,inactive: -20.8%
10,Cn1c(=O)n(Cc2ccccc2)c(=O)c2c1nc1n2CCN1Cc1ccco1,inactive: 11.8%
11,Cn1c(=O)c2c(ncn2CC(=O)N/N=C/c2ccc(Br)s2)n(C)c1=O,inactive: 1.08%
12,COC(=O)c1ccccc1NC(=O)Cn1cnc2c1c(=O)n(C)c(=O)n2C,inactive: -8.17%
13,O=C(Cn1c(CCCO)nc2ccccc21)Nc1ccccc1-c1ccccc1,inactive: -9.62%
14,C/C(=N\NC(=O)Cn1c(C)nc2ccccc21)c1cccs1,inactive: -19.7%
15,CCCNC(=O)Cn1c(=O)n(C)c2ccccc21,inactive: 15.9%
16,CC(C)(C)NC(=O)Cn1c(SCC(=O)NC2CCCCC2)nc2ccccc21,inactive: 2.2%
17,CCNC(=S)N1CCn2c(nc3ccccc32)C1,inactive: 8.22%
18,CC1CN(Cc2nc3c(c(=O)n(C)c(=O)n3C)n2CCN2CCOCC2)CC(C)O1 (centres undefined),inactive: 16.7%
19,Cc1cc(SC(NC=O)C(Cl)(Cl)Cl)ncn1 (centres undefined),inactive: 7.65%
20,CCc1nc2ccccc2n1CC(=O)N1CCN(S(=O)(=O)c2cccc(C(F)(F)F)c2)CC1,inactive: 6.34%
21,O=P(Nc1ccccn1)(c1cccc2ccccc12)c1cccc2ccccc12,inactive: 0.97%
22,COc1ccccc1C(=O)OCCNC(=O)Cn1cnc2c1c(=O)n(C)c(=O)n2C,inactive: 20.6%
23,O=C(Cn1c(CC(=O)N2CCOCC2)nc2ccccc21)Nc1ccc2c(c1)OC(F)(F)O2,inactive: -3.91%

row,SMILES,inhibition
1,O=[N+]([O-])c1ccc(Nc2ccc(Oc3ccc([N+](=O)[O-])cc3[N+](=O)[O-])cc2)c([N+](=O)[O-])c1,inactive: 2.71%
2,CCC(C)c1ccc2oc(-c3ccc(NC(=O)Cn4cnc5c(=O)n(C)c(=O)n(C)c54)cc3)nc2c1 (centres undefined),inactive: -8.47%
3,CCS(=O)(=O)c1nc2ccccc2n1CC(=O)N1CCOCC1,inactive: 7.83%
4,COCCN1CCn2c(nc3cc(NC(=O)c4ccc(OC)cc4)ccc32)C1,inactive: -0.58%
5,O=C(Cn1cnc2c(OCc3ccccc3)ncnc21)NCCCc1ccccc1,inactive: -37.9%
6,CCC(=O)Nc1nnc(/C=C/c2ccccc2)s1,inactive: 5.51%
7,Cn1c(=O)c2c(ncn2CC(=O)N2CCc3ccccc3C2)n(C)c1=O,inactive: -6.37%
8,CCC[n+]1cn(/C(C(=S)Nc2cccc(Cl)c2C)=C(/[O-])c2ccc(OC)c(OC)c2)c2ccccc21,inactive: 17.3%
9,COc1ccc(OCC(=O)N2c3ccc(C)cc3C3CN(C)CCC32)cc1 (centres undefined),inactive: -1.75%
10,O=C(CCCCCNC(=O)N1CCn2c1nc1ccccc12)NCCc1ccccc1,inactive: -8.78%
11,Cc1ccc2c(c1)[C@@H]1CN(C)CC[C@@H]1N2S(=O)(=O)c1ccc([N+](=O)[O-])cc1,inactive: 15.9%
12,NNC(=O)Cn1c(-c2ccccn2)nc2ccccc21,inactive: -15%
13,COc1cc(NC(=O)[C@H](C)NC(=O)N2CCn3c2nc2ccccc23)cc(OC)c1,inactive: -8.29%
14,Cc1ccc(NC(=O)Cn2c(=S)[nH]c3ccccc32)cc1,inactive: 2.19%
15,Cn1c(=O)c2c(ncn2CC(=O)NCc2cccnc2)n(C)c1=O,inactive: -14.2%
16,O=C(Cn1c(CO)nc2ccccc21)Nc1ccc2c(c1)OCCCO2,inactive: -7.68%
17,COC(=O)C[C@H](NC(=O)Cn1cnc2c(OCc3ccccc3)ncnc21)C(=O)OC,inactive: -4.67%
18,Cn1c(=O)[nH]c(=O)c2c1ncn2CCN1CCCCC1,inactive: -1.15%
19,CCOC(=O)Nc1cccc([As](=O)(O)O)c1,inactive: 3.74%
20,O=C(Cn1cnc2ccccc21)Nc1ccc(SC(F)F)cc1,inactive: -33.9%
21,CC(NC(=O)Cn1cnc2c1c(=O)n(C)c(=O)n2C)c1ccccc1 (centres undefined),inactive: -8.58%
22,COc1ccc(CNC(=O)Cn2cnc3c(NCc4ccccc4)ncnc32)cc1,inactive: 5.16%
23,O=C(C1CCCN(S(=O)(=O)c2cccnc2)C1)N1CCn2c1nc1ccccc12 (centres undefined),inactive: -12.7%

row,SMILES,inhibition
1,CCC(C(=O)NC1CCCCC1)n1c(SCc2cccc(C)c2)nc2ccncc21 (centres undefined),inactive: -7.27%
2,Cc1nc2cc(C(F)(F)F)ccc2n1CCNc1nc(-c2ccc(F)cc2)cs1,inactive: -6.67%
3,CCOCN(C(=O)Cn1cnc2ccccc21)c1c(C)cccc1CC,inactive: -27%
4,c1ccc(Cn2c(CNc3nc4ccccc4n3CCN3CCOCC3)nc3ccccc32)cc1,inactive: -23.1%
5,O=C(Nc1ccncc1[N+](=O)[O-])c1ccc([N+](=O)[O-])cc1[N+](=O)[O-],inactive: 5.09%
6,Cc1ccc2c(c1)C1CN(C)CCC1N2S(=O)(=O)c1cccc(C(F)(F)F)c1 (centres undefined),inactive: -12.6%
7,O=C(Cn1cnc2ccccc21)Nc1ccc(F)c(F)c1,inactive: -62%
8,COC(=O)c1cccc(NC(=O)Cn2cnc3c2c(=O)n(C)c(=O)n3C)c1,inactive: -8.06%
9,O=C(COc1ccccc1)OC1CN2CCC1CC2 (centres undefined),inactive: -32.9%
10,O=C(Nc1ccccc1C(F)(F)F)N1CCC(n2c(=O)[nH]c3ccccc32)CC1,inactive: -22.2%
11,CC(C)[C@H](NC(=O)N1CCn2c1nc1ccccc12)C(=O)N[C@H](Cc1ccccc1)C(=O)O,inactive: -8.48%
12,N#CCC(=O)N/N=C\c1cccc(OC/C=C/c2ccccc2)c1,inactive: -5.15%
13,O=C(Cn1cnc2c(OCc3ccccc3)ncnc21)N1CCN(c2ccccn2)CC1,inactive: -9.8%
14,CSc1nc(N)nc2c1ncn2CC(=O)Nc1ccc(C)c(C)c1,inactive: -11.2%
15,N=c1n(CCN2CCCCC2)c2ccccc2n1CC(=O)c1cccs1,inactive: -9.4%
16,COC(=O)C[C@H](NC(=O)Cn1cnc2c(NCc3ccccc3)ncnc21)C(=O)OC,inactive: -2.55%
17,CN(C)CCn1c(NCc2ccc3c(c2)OCO3)nc2ccccc21,inactive: 5.76%
18,COP1(=S)c2c(C)nn(CCC#N)c2N=C(c2ccc(F)cc2)N1C (centres undefined),inactive: 1.01%
19,Cc1ccc(C)c(S(=O)(=O)N2CCN(C(=O)Cn3cnc4c3c(=O)n(C)c(=O)n4C)CC2)c1,inactive: -21.4%
20,C=CCn1c(=O)c2c(nc3n2CCN3c2cccc(Cl)c2C)n(C)c1=O,inactive: 11.5%
